Where “and” joins values, the source holds several entries; their conditions need not be identical. Equal values may be shown once. Out of some 350,000 compounds screened, about 31,000 (8.9%) were called active. These results got no clear call from the source, so the numbers are uncertain. Calls follow the shape of the dose curve; as a rule, active = well fitted inhibition curve with a large enough effect; inconclusive = small, poorly fitted or top-dose-only effect; inactive = no such curve, though single readings can be large or run the other way.
Biological target: Histone-lysine N-methyltransferase EHMT2 (Homo sapiens) (UniProt Q96KQ7)
Assay: qHTS Assay for Inhibitors of Histone Lysine Methyltransferase G9a; also: nearly all actives have a fitted effect of over 75% in size
Conditions: G9a H3K9 monomethylation, AlphaScreen, 2 h; activity, negative = inhibition: at 59 µM (top of the series)
% is scaled to controls: 0 for no effect and ±100 for the full control effect; potency is read from the fitted curve at half-maximal effect.

The chains behind the UniProt entries cited, without tags or fusion partners. Where a name states a change or a piece, a line headed by the entry shows the natural chain unless it says otherwise.
UniProt Q96KQ7: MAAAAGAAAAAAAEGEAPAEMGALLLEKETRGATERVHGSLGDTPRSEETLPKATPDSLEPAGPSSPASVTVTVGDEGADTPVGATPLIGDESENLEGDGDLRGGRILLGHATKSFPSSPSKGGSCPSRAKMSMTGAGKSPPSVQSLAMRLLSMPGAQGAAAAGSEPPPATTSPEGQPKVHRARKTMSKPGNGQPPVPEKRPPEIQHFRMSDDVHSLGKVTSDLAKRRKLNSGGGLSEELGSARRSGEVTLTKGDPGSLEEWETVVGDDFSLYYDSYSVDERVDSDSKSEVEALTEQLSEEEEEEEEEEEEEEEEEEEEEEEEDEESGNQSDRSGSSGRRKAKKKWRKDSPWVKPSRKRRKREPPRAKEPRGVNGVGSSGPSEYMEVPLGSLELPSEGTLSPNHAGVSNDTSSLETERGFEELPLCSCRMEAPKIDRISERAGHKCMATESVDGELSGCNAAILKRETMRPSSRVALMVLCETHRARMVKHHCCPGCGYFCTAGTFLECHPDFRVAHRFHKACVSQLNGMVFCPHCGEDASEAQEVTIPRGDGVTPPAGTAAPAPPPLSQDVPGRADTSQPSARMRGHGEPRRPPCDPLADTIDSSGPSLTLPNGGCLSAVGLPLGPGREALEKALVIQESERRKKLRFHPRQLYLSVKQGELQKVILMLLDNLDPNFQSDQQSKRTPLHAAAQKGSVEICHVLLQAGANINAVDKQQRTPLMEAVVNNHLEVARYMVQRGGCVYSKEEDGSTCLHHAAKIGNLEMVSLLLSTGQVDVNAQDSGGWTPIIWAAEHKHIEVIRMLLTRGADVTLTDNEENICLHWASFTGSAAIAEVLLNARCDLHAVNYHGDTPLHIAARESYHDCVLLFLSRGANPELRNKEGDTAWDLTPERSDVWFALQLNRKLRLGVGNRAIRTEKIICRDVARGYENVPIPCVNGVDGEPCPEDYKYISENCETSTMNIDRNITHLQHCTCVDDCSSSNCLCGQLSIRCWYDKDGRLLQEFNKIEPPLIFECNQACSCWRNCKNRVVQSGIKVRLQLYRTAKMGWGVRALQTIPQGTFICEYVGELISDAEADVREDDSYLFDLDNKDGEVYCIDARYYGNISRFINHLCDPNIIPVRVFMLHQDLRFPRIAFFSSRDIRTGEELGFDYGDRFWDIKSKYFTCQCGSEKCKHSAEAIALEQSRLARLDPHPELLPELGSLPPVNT

SMILES | Potency | activity, negative = inhibition
O=[N+]([O-])c1ccc2c(c1)nnn2O | inconclusive: 28.2 µM | 
CN(C(=O)Cc1ccccc1)[C@@H]1CC[C@]2(CCCO2)C[C@H]1N1CCCC1 | inconclusive: 56.2 µM and inconclusive: 26.7 µM | 
CN(C(=O)Cc1ccc(Cl)c(Cl)c1)[C@@H]1CC[C@]2(CCCO2)C[C@H]1N1CCCC1 | inconclusive: 89.1 µM and inconclusive: 37.7 µM | 
Nc1cccc2c([As](=O)(O)O)cccc12 | inconclusive: 50.1 µM | 
Cc1ccc(C(=O)OC2CN3CCC2CC3)cc1 (stereo unspecified) | inconclusive: 70.8 µM | 
O=P1(Nc2ncccn2)COc2ccccc2OC1 | inconclusive: 0.398 µM | 
Cc1ccc(OCC(=O)OC2CN3CCC2CC3)cc1 (stereo unspecified) | inconclusive: 8.91 µM | 
Cc1cc(SC(NC(=O)c2ccccc2)C(Cl)(Cl)Cl)nc(C(C)C)n1 (stereo unspecified) | inconclusive: 7.08 µM | 
O=[N+]([O-])c1ccc(Nc2ccc(Oc3ccc([N+](=O)[O-])cc3[N+](=O)[O-])cc2)c([N+](=O)[O-])c1 | inconclusive: 39.8 µM | 
O=P(Nc1ccccn1)(c1cccc2ccccc12)c1cccc2ccccc12 | inconclusive: 31.6 µM | 
Cc1cc(=O)[nH]c(N[N+](=O)[O-])n1 | inconclusive: 70.8 µM | 
O=[As](O)(c1ccc(O)cc1)c1ccccc1O | inconclusive: 70.8 µM | 
ClCCSc1nnc(-c2cccnc2)o1 | inconclusive: 3.55 µM | 
CCN(CC)C(=S)SC(NC=O)C(Cl)(Cl)Cl (stereo unspecified) | inconclusive: 20 µM | 
O=P(Nc1nc2ccc(Cl)cc2s1)(c1ccccc1)c1ccccc1 | inconclusive: 44.7 µM | 
Nc1cccc2ccc([As](=O)(O)O)cc12 | inconclusive: 39.8 µM | 
CN1CCCC(OC(=O)C(c2ccccc2)c2ccccc2)C1 (stereo unspecified) | inconclusive: 22.4 µM | 
Cc1c2non([O-])c-2c(C)[n+](=O)[n+]1[O-] | inconclusive: 2.24 µM | 
O=[N+]([O-])c1cc([N+](=O)[O-])c(CCNc2ccccc2)c([N+](=O)[O-])c1 | inconclusive: 0.708 µM | 
Cn1c(=O)[nH]c(=O)c2c1nc(Br)n2Cc1ccccc1 | inconclusive: 79.4 µM | 
O=[N+]([O-])c1cccc(NC2=NCC(CBr)S2)c1 (stereo unspecified) | inconclusive: 56.2 µM | 
C[C@H]1OP(=O)(Oc2ccccc2)[C@H](O)[C@H](O)[C@H]1N=[N+]=[N-] (stereo partly specified) |  | inconclusive: -76.5%
C(Cc1nn[nH]n1)Cc1nn[nH]n1 | inconclusive: 25.1 µM | 
O=C(OC1CN2CCC1CC2)c1cccc(Cl)c1 (stereo unspecified) | inconclusive: 3.55 µM | 
C[C@@H]1C=CCP(=O)(Oc2ccccc2)O1 (stereo partly specified) |  | inconclusive: -79.4%
CC(=O)NC(SC(=S)N(CC(C)C)CC(C)C)C(Cl)(Cl)Cl (stereo unspecified) | inconclusive: 79.4 µM | 
